Literature values as cited in patent US20200360391A1, “Medicinal Composition for Treating Intractable Heart Disease” (Osaka University, priority 2016, published 2020).

Legend:
[1] = system: rats; details: repeated oral administration in rats, duration per compound; cited from earlier work
[2] = human, in vivo; cited from earlier work

Cn1c(=O)c2[nH]cnc2n(C)c1=O [Compound H, Theophylline]
Dose at which toxic findings were observed [1]: ≥ 37.5 mg/kg
Abdominal pain cases [2]: 1.49%
Anorexia cases [2]: 1.28%
